Tested on: α9α10
Assay: Ion channel panel, nAChR α9α10
Assay type: cell-based
Set-up: key: “+” means tested and produced effect; “–“ means tested but no effect
Conditions: S12A at 5 μM, oocytes at −70 mV, 5 min incubation, n ≥ 3
Description: To assess the concentration–response relationships, data were fitted with the Hill equation: y = 100/[1 + (EC50/[toxin])^ h ], where y is the amplitude of the toxin-induced effect (y = I 30 ms/I peak where I 30 ms is the current value at 30 ms in the presence of toxin and I peak is the peak current amplitude in control conditions), EC50 is the toxin concentration at half-maximal efficacy, [toxin] is the toxin concentration, and h is the Hill coefficient. Potassium and calcium currents were evoked by a 500 ms depolarization to the voltage corresponding to the maximal activation of the channels in control conditions from a holding potential of −90 mV. Elicited currents were sampled at 1 kHz and filtered at 0.5 kHz. […] ASIC1a currents were measured in ND96 solutions at a pH of 7.4 and 4.5, at a holding potential of −70 mV during 400 s, and the data were filtered at 20 Hz. EnaC currents were measured by clamping oocytes at a holding potential of −60 mV and perfusing with low- (1 mM) and high- (96 mM) sodium ND96. Opioid currents were measured by clamping the potential to −70 mV and changing the perfusion solution from ND96 to high-potassium (HK) solution composed of 96 mM KCl, 2 mM NaCl, 1 mM MgCl2, 1.8 mM CaCl2, and 5 mM HEPES, with a final pH of 7.5. […] TRPV1 and TRPA1 currents were continuously monitored in a perfusing ND96 solution, following a protocol at −90 mV for 400 s. […]

## CC[C@H](C)[C@@H]1NC(=O)[C@@H](NC(=O)CN)CSSC[C@@H]2NC(=O)[C@@H]3CSSC[C@@H](C(=O)N[C@@H](CC(N)=O)C(=O)N4C[C@H](O)C[C@H]4C(=O)N4C[C@H](O)C[C@H]4C(=O)N[C@@H](CC(N)=O)C(=O)N[C@@H](CCC(N)=O)C(=O)O)NC(=O)[C@H](CCCCN)NC(=O)[C@H](Cc4ccccc4)NC(=O)[C@H](CC(N)=O)NC(=O)[C@H](Cc4c[nH]c5ccccc45)NC(=O)CNC(=O)[C@H](CSSC[C@H](NC(=O)[C@H](Cc4ccccc4)NC(=O)[C@H](CO)NC(=O)CNC(=O)[C@H]([C@@H](C)O)NC(=O)[C@H](C)NC1=O)C(=O)N[C@@H]([C@@H](C)O)C(=O)N[C@@H](CC(C)C)C(=O)N[C@@H](C)C(=O)N[C@@H](CCCCN)C(=O)NCC(=O)N3)NC(=O)[C@H](CC(N)=O)NC(=O)[C@H](CCCCN)NC(=O)[C@H]([C@@H](C)O)NC2=O [Peptide S12A]
  effect on α9α10: –

Reference: publication PMC12836348, “Alanine Mutagenesis Identifies Specific Amino Acids of Nemertide Alpha‑1 Activity and Its Binding to Target Receptors” (Journal of Natural Products, 2025)
